Measurements taken from PubChem BioAssay (Tox21).
Where “and” joins values, the source holds several entries; their conditions need not be identical. Equal entries are not always repeated. The list shows a part of the results, in another mix than the full data. Results filed as inconclusive are left out. Calls of active or inactive are those of the source. Unless noted, calls come from the whole dose curve; as a rule, active = well fitted curve in the direction sought with a large enough effect in the repeat runs; inconclusive = weak or mixed curves; inactive = no such curve, though single readings can be large; an effect the other way counts as inactive or inconclusive.

Chains of the proteins cited; added tags and fusions are not shown.
UniProt P11511, whole entry: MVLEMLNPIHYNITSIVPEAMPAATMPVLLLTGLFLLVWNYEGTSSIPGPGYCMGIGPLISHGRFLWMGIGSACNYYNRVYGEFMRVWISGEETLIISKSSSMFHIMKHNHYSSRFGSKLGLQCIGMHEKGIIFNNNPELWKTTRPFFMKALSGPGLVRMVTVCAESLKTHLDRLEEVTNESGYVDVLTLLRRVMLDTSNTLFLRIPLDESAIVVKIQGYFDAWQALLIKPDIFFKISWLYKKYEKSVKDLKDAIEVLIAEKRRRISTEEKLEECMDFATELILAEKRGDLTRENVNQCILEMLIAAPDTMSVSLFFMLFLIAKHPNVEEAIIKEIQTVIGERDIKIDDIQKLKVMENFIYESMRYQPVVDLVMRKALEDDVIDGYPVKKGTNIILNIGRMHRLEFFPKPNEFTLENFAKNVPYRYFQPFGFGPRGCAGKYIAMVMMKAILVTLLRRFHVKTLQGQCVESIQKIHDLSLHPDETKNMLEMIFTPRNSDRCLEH

Key:
[1] = qHTS assay for small molecules that induce genotoxicity in human embryonic kidney cells expressing luciferase-tagged ATAD5 (AID 651632); conditions: HEK293T ATAD5-luciferase induction, 16 h; note: nearly all actives have a fitted effect of over 15% in size
Summary of the method: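 HEK293T cells carrying luciferase-tagged ATAD5 were given compound or DMSO vehicle and incubated 16 hr at 37C, 5% CO2. Luciferase activity was read after 30 min at room temperature with Amplite; a rise signals genotoxic stress.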

[2] = qHTS assay for small molecule agonists of the p53 signaling pathway - cell viability (AID 651633; calls by dose curve; note: nearly all actives have a fitted effect of over 30% in size); conditions: p53RE-bla HCT-116 viability, ATP luminescence, 16 h
Summary of the method: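 p53RE-bla cells, seeded at 4,000 per well and rested 5 h at 37 C/5% CO2, received compounds in DMSO for 16 h at 37 C. CellTiter-Glo was then added, and luminescence was read after 30 min at room temperature to gauge cytotoxicity.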

[3] = qHTS assay for small molecules that induce genotoxicity in human embryonic kidney cells expressing luciferase-tagged ATAD5 - cell viability (AID 651634; calls by dose curve; note: nearly all actives have a fitted effect of over 25% in size); conditions: HEK293T ATAD5-luc cells viability, CellTiter-Fluor, 15.5 h
Summary of the method: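 HEK293T cells carrying luciferase-tagged ATAD5, 2,000 cells/well, exposed to compound for 15.5 hr at 37C. Viability read as live-cell protease activity by CellTiter-Fluor fluorescence after 30 min at 37C.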

[4] = qHTS assay for small molecule disruptors of the mitochondrial membrane potential (AID 720635); conditions: HepG2 mitochondrial membrane potential, Mito-MPS dye ratio
Summary of the method: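 HepG2 cells (2,000/well) attached overnight at 37C, then took compound for 1 hr at 37C, 5% CO2. Mito-MPS dye was added for 30 min; fluorescence was read at 490/535 nm (monomers) and 540/590 nm (aggregates).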

[5] = qHTS assay for identifying genotoxic compounds that show differential cytotoxicity against isogenic chicken DT40 cell lines with known DNA damage response pathways - wild type cell line (AID 743012); conditions: DT40 wild type chicken cells viability, CellTiter-Glo, 40 h; note: nearly all actives have a fitted effect of over 60% in size
Summary of the method: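 Wild-type DT40 cells (300/well) exposed to compounds for 40 hours at 37 C/5% CO2. Viability read by CellTiter-Glo luminescence after 30 min at room temperature.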

[6] = qHTS assay for identifying genotoxic compounds that show differential cytotoxicity against isogenic chicken DT40 cell lines with known DNA damage response pathways - Rad54/Ku70 mutant cell line (AID 743015); conditions: DT40 Rad54/Ku70 mutant viability, CellTiter-Glo, 40 h; note: nearly all actives have a fitted effect of over 60% in size
[7] = qHTS assay to identify small molecule antagonists of the androgen receptor (AR) signaling pathway using the MDA cell line - cell viability counter screen (AID 743041; note: nearly all actives have a fitted effect of over 45% in size); conditions: MDA-kb2 viability, CellTiter-Fluor, 16 h; cells co-treated with R1881 androgen agonist
Summary of the method: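 Viability counter screen run alongside the AR antagonist reporter: cells seeded 5 h before compound, R1881 added, 16 h incubation at 37C without CO2, fluorescent CellTiter-Fluor signal quantified.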

[8] = qHTS assay to identify small molecule antagonists of the thyroid receptor (TR) signaling pathway - cell viability counter screen (AID 743064); conditions: GH3.TRE-Luc viability, CellTiter-Fluor, 24 h; note: nearly all actives have a fitted effect of over 50% in size
Summary of the method: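 Fluorescence from CellTiter-Fluor, added after 23.5 h exposure at 37 °C, reported viability of GH3.TRE-Luc cells co-treated with compound and 1 nM T3. Measured in the same wells as the luciferase TR readout.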

[9] = qHTS assay to identify small molecule antagonists of the thyroid receptor (TR) signaling pathway (AID 743065); conditions: GH3.TRE-Luc, T3-stimulated luciferase inhibition, 23.5 h; note: nearly all actives have a fitted effect of over 55% in size
Summary of the method: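 GH3.TRE-Luc rat pituitary cells carrying two TR response elements driving luciferase were plated for 4 h, given compound plus 1 nM T3 (final), and incubated 23.5 h at 37 C. ONE-Glo luminescence measured reporter inhibition; CellTiter-Fluor fluorescence tracked cytotoxicity.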

[10] = qHTS assay to identify small molecule antagonists of the estrogen receptor alpha (ER-alpha) signaling pathway using the BG1 cell line (AID 743080; calls by dose curve;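 note: BG1 cells stimulated with 17beta-estradiol alongside compound; nearly all actives have a fitted effect of over 25% in size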); conditions: BG1Luc4E2 ERE-luciferase antagonist mode, luminescence
Summary of the method: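 BG1Luc4E2, endogenous ER-alpha, 4xERE-luc; 5 d charcoal-stripped FBS, phenol red free; 24 h plating; cpd + 17beta-estradiol 21.5 h, 37 C/5% CO2; CellTiter-Fluor viability 30 min, then ONE-Glo luciferase 30 min RT.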

Aromatase (Homo sapiens) = Aromatase (Homo sapiens) (UniProt P11511); test: qHTS assay to identify aromatase inhibitors (AID 743083); conditions: MCF-7 aro ERE, testosterone-driven ERE luciferase, 24 h; note: nearly all actives have a fitted effect of over 55% in size
[11] = qHTS assay to identify aromatase inhibitors - cell viability counter screen (AID 743084); conditions: MCF-7 aro ERE viability, CellTiter-Fluor, 24 h; series mostly up to 70.3 µM;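 note: cells stimulated with testosterone during compound exposure; nearly all actives have a fitted effect of over 55% in size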
[12] = qHTS assay to identify small molecule that activate the aryl hydrocarbon receptor (AhR) signaling pathway - cell viability counter screen (AID 743086); conditions: HepG2-AhR-luc viability, CellTiter-Fluor, 24 h; note: nearly all actives have a fitted effect of over 45% in size
Summary of the method: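 HepG2-AhR-luc (HG2L7.5c1) cells, 4000/well, were preincubated 5 h at 37C, exposed to compound in qHTS format for 24 hr at 37C, then given CellTiter-Fluor for 30 min; viability was read as fluorescence in the reporter wells.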

[13] = qHTS assay for small molecule agonists of the antioxidant response element (ARE) signaling pathway (AID 743202; active = well fitted activation curve with a large enough effect in the signal ratio in the repeat runs, not every such curve was filed as active; the % refers to the signal ratio); conditions: HepG2 ARE-bla reporter, beta-lactamase FRET, 16 h
Summary of the method: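 Compounds delivered in DMSO to ARE-bla HepG2 cells (2,000 cells/well, pre-incubated 5 h) and left 16 h at 37 C. LiveBLAzer B/G FRET substrate then added for 2 h at RT before fluorescence reading.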

[14] = qHTS assay for small molecule agonists of the antioxidant response element (ARE) signaling pathway - cell viability counter screen (AID 743203; calls by dose curve; note: nearly all actives have a fitted effect of over 55% in size); conditions: ARE-bla HepG2 viability, CellTiter-Glo luminescence, 16 h
Summary of the method: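 ARE-bla HepG2 cells were plated, rested 5 h at 37C/5% CO2, then exposed to compounds in DMSO for 16 h. Viability was read as CellTiter-Glo luminescence after 30 min at room temperature, in the same wells as the ARE screen.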

[15] = qHTS assay for small molecule activators of the heat shock response signaling pathway - cell viability counter screen (AID 743209); conditions: HSE-bla HeLa viability, CellTiter-Glo luminescence, 5 h; note: nearly all actives have a fitted effect of over 50% in size
Summary of the method: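 HSE-bla HeLa cells plated overnight, then exposed to Tox21 compounds (23 nL in DMSO) for 5 h at 37 C. After the bla reporter read, CellTiter-Glo was added in the same wells and luminescence read after 30 min at room temperature.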

[16] = qHTS assay to identify small molecule agonists of the peroxisome proliferator-activated receptor delta (PPARd) signaling pathway - cell viability counter screen (AID 743211); conditions: PPARd-bla HEK293H viability, CellTiter-Glo luminescence, 17 h; note: nearly all actives have a fitted effect of over 55% in size
Summary of the method: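 HEK293H PPARd-bla, 3000 cells/well; 5 h preincubation 37C/5% CO2; cpd in DMSO, 17 h 37C; B/G FRET substrate 2 h RT; CellTiter-Glo 30 min RT, luminescence.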

[17] = qHTS assay to identify small molecule agonists of the farnesoid-X-receptor (FXR) signaling pathway - cell viability counter screen (AID 743218); conditions: FXR-bla HEK293T viability, CellTiter-Glo luminescence, 16 h; note: nearly all actives have a fitted effect of over 45% in size
Summary of the method: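 FXR-UAS-bla HEK 293T cells exposed to compounds for 16 h at 37C. Cytotoxicity read in the same wells by CellTiter-Glo luminescence after 30 min at room temperature, following the beta-lactamase FRET read.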

Measured: Potency
Potency is the fitted concentration of half-maximal effect.

CN(CCCl)CCCl
active: [1] 29.8 µM and 12.2 µM | [2] 29.8 µM | [3] 48.5 µM | [4] 2.43 µM | [5] 13.3 µM | [6] 11.9 µM and 12.2 µM | [7] 54.4 µM | [8] 13.3 µM and 12.2 µM | [9] 10.6 µM | [10] 26.6 µM | Aromatase (Homo sapiens) 12.2 µM | [11] 26.6 µM | [12] 30.6 µM | [13] 9.67 µM and 13.3 µM | [14] 43.2 µM | [15] 21.1 µM | [16] 43.6 µM | [17] 54.8 µM
